Assay results reported in ChEMBL document CHEMBL1129261, “De novo antimicrobial peptides with low mammalian cell toxicity” (1996).
≈ marks a conversion by molar mass, not a printed value.

Tests used:
Type in all cases: functional
Staphylococcus aureus = assay: Compound was evaluated for antibacterial activity against Staphylococcus aureus
Summary of the method: (§1)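 Broth microdilution MIC against E. coli ATCC 25922, P. aeruginosa ATCC 27853, S. aureus ATCC 25723. Cultures grown to midlog phase in nutrient broth, standardized to 0.5 McFarland, diluted to 5 × 10^4 cells per well. Equal volume of peptide added, 1:2 serial dilutions giving 256-2 µg/mL in medium. MIC is the lowest concentration with no turbidity […]. Median of three to seven tests.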

Pseudomonas aeruginosa = assay: Compound was evaluated for antibacterial activity against Pseudomonas aeruginosa; summary of the method: as §1
Escherichia coli = assay: Compound was evaluated for antibacterial activity against Escherichia coli; summary of the method: as §1

CC[C@H](C)[C@H](NC(=O)CN)C(=O)NCC(=O)N[C@@H](C)C(=O)N[C@H](C(=O)N[C@@H](CC(C)C)C(=O)N[C@@H](CCCCN)C(=O)N[C@H](C(=O)N[C@@H](CC(C)C)C(=O)N[C@H](C(=O)N[C@H](C(=O)NCC(=O)N[C@@H](CC(C)C)C(=O)N1CCC[C@H]1C(=O)N[C@@H](C)C(=O)N[C@@H](CC(C)C)C(=O)N[C@H](C(=O)N[C@@H](CO)C(=O)N[C@@H](Cc1c[nH]c2ccccc12)C(=O)N[C@H](C(=O)N[C@@H](CCCCN)C(=O)N[C@@H](CCCNC(=N)N)C(=O)N[C@@H](CCCCN)C(=O)N[C@@H](CCCNC(=N)N)C(=O)N[C@@H](CCC(N)=O)C(=O)N[C@@H](CCC(N)=O)C(N)=O)[C@@H](C)CC)[C@@H](C)CC)[C@@H](C)O)[C@@H](C)O)C(C)C)C(C)C [MELITTIN]
MIC (Staphylococcus aureus): 3 µM (≈ 8.54 µg/mL) | MIC (Pseudomonas aeruginosa): 6 µM (≈ 17.1 µg/mL) | MIC (Escherichia coli): 3 µM (≈ 8.54 µg/mL)
